Test results taken from ChEMBL document CHEMBL3797028, “Novel S1P1 receptor agonists - Part 4: Alkylaminomethyl substituted aryl head groups” (Eur J Med Chem, 2016).

Chains of the proteins cited; added tags and fusions are not shown.
UniProt P21453, whole entry: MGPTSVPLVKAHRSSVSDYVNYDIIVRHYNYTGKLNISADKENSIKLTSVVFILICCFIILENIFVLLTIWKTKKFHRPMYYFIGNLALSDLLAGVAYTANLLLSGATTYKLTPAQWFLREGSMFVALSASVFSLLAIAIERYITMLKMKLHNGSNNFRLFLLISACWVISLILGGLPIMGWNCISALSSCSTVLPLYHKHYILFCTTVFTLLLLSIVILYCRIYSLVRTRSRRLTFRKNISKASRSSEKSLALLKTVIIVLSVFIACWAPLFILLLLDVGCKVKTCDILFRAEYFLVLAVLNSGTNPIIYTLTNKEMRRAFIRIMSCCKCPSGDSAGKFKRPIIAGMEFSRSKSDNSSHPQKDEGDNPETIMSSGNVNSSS

Target: Sphingosine 1-phosphate receptor 1 (Homo sapiens, UniProt P21453)
Test: Agonist activity at human recombinant S1PR1 expressed in CHO cell membranes assessed as [35S]GTPgammaS binding preincubated for 30 mins followed by [35S]GTPgammaS addition measured after 1 hr by topcount analysis

EC50 [nM]	SMILES
0.9	CCc1cc(-c2noc(-c3cc(C)c(CN(C)C)s3)n2)cc(C)c1OC[C@@H](O)CNC(=O)CO
8	CCc1cc(-c2noc(-c3cc(C)cc(CN(C)C)c3)n2)cc(C)c1OC[C@@H](O)CNC(=O)CO
